Test system: cornea (corneal thickness)
Conditions: rabbit, in vivo

SMILES: COc1ccc([C@@H]2Sc3ccccc3N(CCN(C)C)C(=O)[C@@H]2OC(C)=O)cc1 [diltiazem]
- Corneal thickness (mm): 2 hours: 0.394 mm

— patent US6380198B1 (Laboratoire Medidom S.A., priority 1997, dated 2002)
